Source: article PMC11324666, “Two novel in vitro assays to screen chemicals for their capacity to inhibit thyroid hormone transmembrane transporter proteins OATP1C1 and OAT4” (Archives of Toxicology, 2024)

Experiments:
OAT4 = molecular target: T1, OAT4 (Homo sapiens, UniProt Q9NSA0); experiment: MDCK-OAT4 TH uptake assay with 125I-T4 tracer
T1 sequence (Q9NSA0 1-550): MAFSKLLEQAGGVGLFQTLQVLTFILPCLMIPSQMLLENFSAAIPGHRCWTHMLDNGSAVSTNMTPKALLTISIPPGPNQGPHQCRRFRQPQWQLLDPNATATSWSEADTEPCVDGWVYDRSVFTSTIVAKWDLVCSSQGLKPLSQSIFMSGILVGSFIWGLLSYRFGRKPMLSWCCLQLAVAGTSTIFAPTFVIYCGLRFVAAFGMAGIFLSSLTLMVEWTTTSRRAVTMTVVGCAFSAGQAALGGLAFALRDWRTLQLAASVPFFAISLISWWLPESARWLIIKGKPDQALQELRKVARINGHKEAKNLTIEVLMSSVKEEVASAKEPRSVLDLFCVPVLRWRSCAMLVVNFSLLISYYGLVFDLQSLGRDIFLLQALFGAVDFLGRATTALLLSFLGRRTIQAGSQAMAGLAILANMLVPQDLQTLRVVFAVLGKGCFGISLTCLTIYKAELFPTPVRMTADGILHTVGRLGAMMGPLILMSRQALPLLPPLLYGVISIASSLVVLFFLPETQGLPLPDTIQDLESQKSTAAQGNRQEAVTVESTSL

OATP1C1 = molecular target: T2, OATP1C1 (Homo sapiens, UniProt Q9NYB5); experiment: CHO-K1 OATP1C1 TH uptake assay with 125I-T4 tracer; conditions: 10 nM T4, 30 min; for T4 uptake inhibition BMC20 (M), [CI]: concentration that inhibits 125I-T4 uptake by 20%, brackets = 95% CI
T2 sequence (Q9NYB5 1-712): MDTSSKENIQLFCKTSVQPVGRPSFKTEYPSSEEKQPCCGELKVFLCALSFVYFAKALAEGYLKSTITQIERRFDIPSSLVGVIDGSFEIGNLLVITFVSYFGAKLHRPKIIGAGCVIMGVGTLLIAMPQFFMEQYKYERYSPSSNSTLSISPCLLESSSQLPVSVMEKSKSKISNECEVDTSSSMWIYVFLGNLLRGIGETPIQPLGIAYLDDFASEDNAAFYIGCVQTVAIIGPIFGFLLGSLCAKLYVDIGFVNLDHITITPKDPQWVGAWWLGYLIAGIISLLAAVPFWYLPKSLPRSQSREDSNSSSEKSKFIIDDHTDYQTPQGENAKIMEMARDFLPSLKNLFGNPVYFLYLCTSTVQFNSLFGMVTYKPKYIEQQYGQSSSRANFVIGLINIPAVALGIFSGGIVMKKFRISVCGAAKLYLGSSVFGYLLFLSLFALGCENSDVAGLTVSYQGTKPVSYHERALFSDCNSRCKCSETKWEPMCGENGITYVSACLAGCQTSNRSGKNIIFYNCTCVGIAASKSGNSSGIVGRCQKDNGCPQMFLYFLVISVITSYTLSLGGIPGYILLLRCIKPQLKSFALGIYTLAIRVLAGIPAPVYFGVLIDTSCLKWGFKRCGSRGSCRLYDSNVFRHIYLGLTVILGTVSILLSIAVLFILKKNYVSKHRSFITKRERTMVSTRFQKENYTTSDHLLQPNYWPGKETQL

| SMILES | T4 uptake inhibition BMC20 (M), [CI] (OAT4) | T4 uptake on co-exposure to known inhibitor (OAT4) | T4 uptake inhibition BMC20 (M), [CI] (OATP1C1) | 125I-T4 uptake compared to the vehicle control (range finding) (OATP1C1; single concentration 10 or 100 µM, below 80% = positive hit) |
| --- | --- | --- | --- | --- |
| O=C(O)CSc1nnc(Br)n1-c1ccc(C2CC2)c2ccccc12 [Lesinurad, reference compound] | 3.23E−06 [2.26E−06; 4.61E−06] M | decreased back to control concentrations | – | – |
| O=C(O)Cc1ccccc1Nc1c(Cl)cccc1Cl [Diclofenac] | – | – | 1.40E−06 [6.84E−07; 2.87E−06] M | – |
| O=S(=O)(c1ccc(O)cc1)c1ccc(O)cc1 [Bisphenol S, Bisphenol-S] | – | – | 3.38E−05 [7.87E−06; 1.45E−04] M | below 80% |
